This is a selection: effects in other tests are not listed, and their absence says nothing.
Molecular target: HIF-PHD2 (Homo sapiens, UniProt Q9GZT9)
Test: Assay for HIF-PHD2 Catalytic Activity (PHD2 Binding Activity)
Assay type: biochemical
Conditions: read-out: PHD2 Binding Activity IC50

Protein sequences, listed by entry. Tags and fused reporters are not part of them.
UniProt Q9GZT9, whole entry: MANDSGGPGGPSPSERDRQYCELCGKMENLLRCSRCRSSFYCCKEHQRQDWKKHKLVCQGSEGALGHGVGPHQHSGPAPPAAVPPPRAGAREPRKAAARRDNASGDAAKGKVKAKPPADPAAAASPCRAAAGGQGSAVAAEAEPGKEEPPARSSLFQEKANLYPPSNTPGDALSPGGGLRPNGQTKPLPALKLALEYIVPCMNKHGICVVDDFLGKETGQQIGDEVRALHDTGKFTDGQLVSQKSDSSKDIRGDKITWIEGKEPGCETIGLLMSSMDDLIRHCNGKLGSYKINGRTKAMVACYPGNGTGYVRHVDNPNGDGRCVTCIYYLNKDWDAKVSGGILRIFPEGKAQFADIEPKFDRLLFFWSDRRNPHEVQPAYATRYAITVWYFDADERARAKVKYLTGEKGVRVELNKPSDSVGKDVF

3-biphenyl-4-yl-1-(4-hydroxypyrimidin-2-yl)-8-[(3-methylpyridin-2-yl)methyl]-1,3,8-triazaspiro[4.5]decane-2,4-dione
IC50: 0.5 to 20 nM

3-biphenyl-4-yl-1-(6-hydroxypyrimidin-4-yl)-8-[(3-methylpyridin-2-yl)methyl]-2,4-dioxo-1,3,8-triazaspiro[4.5]decane-6-carboxylic acid
IC50: 0.5 to 20 nM

tert-butyl (2-{[3-biphenyl-4-yl-1-(4-methoxypyrimidin-2-yl)-2,4-dioxo-1,3,8-triazaspiro[4.5]dec-8-yl]methyl}-1H-imidazol-1-yl)acetate
IC50: 0.5 to 20 nM

— patent US8921555B2, “Substituted-1,3,8-triazaspiro[4.5]decane-2,4-diones” (Merck Sharp & Dohme Corp., priority 2009, dated 2014)
